Tests used:
PI3K gamma [1] = molecular target: T1, PI3K gamma (Homo sapiens, UniProt P48736); experiment: Competitive binding assay for PI3K gamma interacting compounds in cell lysate (dot blot)
PI3K gamma [2] = molecular target: T1, PI3K gamma; experiment: Elution assay for PI3K gamma interacting compounds (elution from immobilized phenylthiazole ligand 1, dot blot); format: binding; design: PI3K gamma protein was captured by immobilized phenylthiazole ligand 1 from MOLT-4 cell lysate; endogenous in cells; host or cells: MOLT-4 (ATCC CRL-1582) cell lysate; conditions: elution of PI3K gamma captured from MOLT-4 cell lysate by immobilized phenylthiazole ligand 1

The chains behind the UniProt entries cited, without tags or fusion partners. Where a name states a change or a piece, a line headed by the entry shows the natural chain unless it says otherwise.
UniProt P48736: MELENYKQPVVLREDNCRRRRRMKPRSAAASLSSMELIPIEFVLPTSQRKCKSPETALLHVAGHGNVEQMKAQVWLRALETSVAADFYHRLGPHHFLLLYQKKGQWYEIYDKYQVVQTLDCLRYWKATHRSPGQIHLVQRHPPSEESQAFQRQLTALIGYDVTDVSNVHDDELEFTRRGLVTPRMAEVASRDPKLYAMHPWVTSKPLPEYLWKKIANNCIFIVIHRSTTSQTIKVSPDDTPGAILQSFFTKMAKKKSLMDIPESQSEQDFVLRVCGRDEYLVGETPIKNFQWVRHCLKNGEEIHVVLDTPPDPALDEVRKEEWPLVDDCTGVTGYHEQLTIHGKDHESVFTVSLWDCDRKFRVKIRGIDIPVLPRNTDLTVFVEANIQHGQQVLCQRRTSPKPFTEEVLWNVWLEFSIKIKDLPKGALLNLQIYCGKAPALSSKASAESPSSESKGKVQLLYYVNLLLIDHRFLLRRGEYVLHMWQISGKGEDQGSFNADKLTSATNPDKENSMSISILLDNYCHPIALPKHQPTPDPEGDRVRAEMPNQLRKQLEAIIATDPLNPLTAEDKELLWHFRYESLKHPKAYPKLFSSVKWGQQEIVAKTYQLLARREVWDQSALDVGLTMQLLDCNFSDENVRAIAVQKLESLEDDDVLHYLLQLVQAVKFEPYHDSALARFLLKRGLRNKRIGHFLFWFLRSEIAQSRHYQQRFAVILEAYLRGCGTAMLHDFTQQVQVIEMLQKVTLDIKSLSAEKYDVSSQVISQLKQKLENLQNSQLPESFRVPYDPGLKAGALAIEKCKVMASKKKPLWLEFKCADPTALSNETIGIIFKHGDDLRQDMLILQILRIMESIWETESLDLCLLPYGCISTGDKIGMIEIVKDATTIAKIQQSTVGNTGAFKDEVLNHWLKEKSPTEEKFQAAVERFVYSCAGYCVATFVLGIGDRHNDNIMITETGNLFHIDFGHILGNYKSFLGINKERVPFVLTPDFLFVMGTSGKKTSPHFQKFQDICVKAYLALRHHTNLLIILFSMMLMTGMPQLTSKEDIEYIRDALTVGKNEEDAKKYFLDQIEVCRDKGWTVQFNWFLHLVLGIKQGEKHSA

In the case of `O=c1cc(N2CCOCC2)oc2c(-c3ccccc3)cccc12` [Compound 1], the IC50 (PI3K gamma [1]) is reported as > 30 µM and the IC50 (PI3K gamma [2]) is reported as > 100 µM.

— patent publication US20110111972A1, “SELECTIVITY PROFILING OF PI3K INTERACTING MOLECULES AGAINST MULTIPLE TARGETS” (CELLZOME AG, priority 2008, published 2011)
